Values of other authors in patent US20080070794A1, “Chemical sensors” (The Trustees of Princeton University, priority 2005, published 2008).

Tests used:
Settings in all cases: cited from earlier work
alpha A1 = molecular target: alpha A1
Muscarinic = molecular target: Muscarinic
Melatonin = molecular target: Melatonin
Histamine = system: Histamine

O=C1CC2(CCCC2)CC(=O)N1CCCCN1CCN(c2ncccn2)CC1 [buspirone]
Kd (alpha A1): 100 µM | Kd (Muscarinic): 100 µM

Clc1cccc(Cl)c1N=C1NCCN1 [clonidine]
Kd (Melatonin): 100 µM

CNC[C@H](O)c1ccc(O)c(O)c1 [epinephrine]
x (efficacy factor) Histamine (Histamine): 1.0
